# Test results as given in US8044094B2, “Agents for preventing and treating disorders connected to impaired neurotransmission” (DSM IP Assets B.V., priority 2004, dated 2011).
# The chains behind the UniProt entries cited, without tags or fusion partners.
# UniProt P31645, whole entry: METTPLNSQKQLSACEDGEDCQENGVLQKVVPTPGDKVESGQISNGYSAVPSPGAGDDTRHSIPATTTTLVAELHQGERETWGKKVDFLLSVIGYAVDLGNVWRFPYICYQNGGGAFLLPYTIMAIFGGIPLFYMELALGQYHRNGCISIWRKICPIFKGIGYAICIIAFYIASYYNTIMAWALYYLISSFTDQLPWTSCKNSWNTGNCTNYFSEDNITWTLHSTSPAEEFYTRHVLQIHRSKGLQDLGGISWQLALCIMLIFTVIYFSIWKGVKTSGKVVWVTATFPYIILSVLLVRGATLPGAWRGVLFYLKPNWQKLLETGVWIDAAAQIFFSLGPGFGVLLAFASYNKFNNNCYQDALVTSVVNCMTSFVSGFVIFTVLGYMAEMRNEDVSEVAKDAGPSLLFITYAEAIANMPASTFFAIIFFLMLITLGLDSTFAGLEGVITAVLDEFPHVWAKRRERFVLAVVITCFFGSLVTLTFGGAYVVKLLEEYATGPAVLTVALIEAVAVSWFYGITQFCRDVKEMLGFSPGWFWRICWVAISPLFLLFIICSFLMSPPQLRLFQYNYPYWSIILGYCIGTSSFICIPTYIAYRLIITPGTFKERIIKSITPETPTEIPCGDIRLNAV
# pKi: −log10 of the molar value.
# Key:
# [1] = target: T1, human serotonin re-uptake transporter (hSERT) (Homo sapiens, UniProt P31645); test: Labeled citalopram displacement from hSERT containing membranes (SPA); format: binding; conditions: read-out: Inhibition constant Ki for tritiated citalopram displacement, Ki from IC50 by Cheng-Prusoff, 3.3 nM (3H) citalopram
# Method: Membranes containing hSERT were prepared from the above cell line according to Galli et al, Journal of Experimental Biology 1995, 198, 2197-2212. 3 μg of membrane protein and 0.8 mg of wheat germ aglutinin coated SPA® (scintillation proximity assay) beads (Amersham Biosciences GE Healthcare, Slough, UK) per data point were mixed with radio-labeled (3H) citalopram (Amersham Biosciences GE Healthcare, Slough, UK) until a final concentration of 3.3 nM in 50 mM Tris-HCl, 300 mM NaCl (pH 7.4). After incubation for 18 hours at room temperature, the bound citalopram was quantified by liquid scintillation counting.
# The effect of the coumarin ethers of formula I on the serotonin uptake and the citalopram binding was determined by its inclusion in the assay at a range of concentrations between 0.03 and 100 μM for 10 minutes prior to and during the addition of (3H) serotonin/citalopram. Serotonin uptake via the transporter and citalopram binding were both inhibited by the coumarin ethers of formula I in a dose dependent manner. The calculated inhibition constants Ki, derived from the measured IC50 using the Cheng—Prusoff equation (Y. C. Cheng, W. H. Prusoff, Biochem. Pharmacol. 1973, 22, p. 3099-3108), for inhibition of serotonin uptake and citalopram binding by coumarin ethers of the formula I are shown in Table 1.
# [2] = target: T1, human serotonin re-uptake transporter (hSERT); test: Serotonin uptake inhibition in HEK-293 cells stably expressing hSERT; format: cell-based; conditions: read-out: Inhibition constant Ki for tritiated serotonin uptake; transfected HEK-293 cells; Ki from IC50 by Cheng-Prusoff; 20 nM (3H) serotonin
# Method: HEK-293 cells stably expressing the human serotonin re-uptake transporter (hSERT) were obtained from R. Blakely, Vanderbilt University, USA. The cells were routinely grown in Dulbeco's Modified Eagles Medium, purchased from Bioconcept, Allschwil, Switzerland containing 10% fetal calf serum, penicillin, streptomycin, L-glutamine and the antibiotic G418 and passaged by trypsinisation. 1 day prior to the assay cells were seeded in the above mentioned medium. Immediately prior to the assay the medium was replaced by Krebs Ringers bicarbonate buffer, purchased from Sigma Chemicals Ltd., supplemented with 35 μM pargyline, 2.2 mM CaCl2, 1 mM ascorbic acid and 5 mM N-2-hydroxyethylpiperazine-N′-2-ethanesulfonic acid (buffer called “Hepes”). Serotonin uptake into the cells was determined by addition of radio-labeled (3H) serotonin (Amersham Biosciences GE Healthcare, Slough, UK) to a concentration of 20 nM, and incubation for 30 minutes at room temperature. Following removal of unincorporated label by gentle washing three times with the above buffer, incorporated serotonin was quantified by liquid scintillation counting.
# The effect of the coumarin ethers of formula I on the serotonin uptake and the citalopram binding was determined by its inclusion in the assay at a range of concentrations between 0.03 and 100 μM for 10 minutes prior to and during the addition of (3H) serotonin/citalopram. […]
compound,measurement,setting,value
CC(=O)OC(C)(C)C(=O)C/C=C(/C)CCC/C(C)=C/COc1ccc2ccc(=O)oc2c1,pKi,[1],5.13
same,pKi,[2],5.37
